# High-throughput results as filed in PubChem BioAssay.
# TDP1 cell CPT = growth inhibition of DT40 Tdp1-/-;hTDP1 cells with camptothecin (screen for TDP1 inhibitors) | chicken DT40 Tdp1-/-;hTDP1 cells + 20 nM CPT, ATP luminescence, 48 h | Potency, µM (series often up to 46.2 µM), for inactives: at the top dose activity change, negative = growth inhibition, hits mostly inhibitors | actives 12% (n = 420,000) | AID 686979; also: potency is read from the fitted curve at half-maximal effect; % is scaled to controls: 0 for no effect and ±100 for the full control effect; nearly all actives have a fitted effect of over 55% in size
#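 Chicken DT40 Tdp1-/- cells complemented with human TDP1, 400 cells/well, exposed to compounds plus 20 nM camptothecin for at least 48 h at 37 C; viability read as ATP content by CellTiter-Glo luminescence.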
# miR-21 FLuc = raises the signal of a miR-21 reporter; HeLa miR-21 FLuc reporter, luciferase, 48 h; Potency, µM (top dose mostly 38.3 µM), for inactives: at the highest dose reporter change, positive = more light; AID 2288; 340,000 tested, under 10 active; active = well fitted rising curve with a large enough effect; inconclusive = small, poorly fitted or top-dose-only effect; inactive = no such curve, though single readings can be large or run the other way;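 note: % of control where 0% means no effect; miR-21 action dims this reporter so a rising signal means less miR-21 action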
#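 Using DMEM plus 10% FBS, HeLa miR-21-FLuc cells are incubated with test compounds (final up to about 40uM) for 48 hours; firefly luciferase signal is then imaged following reagent-mediated lysis.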
# DT40 TDP1 no CPT = qHTS for Inhibitors of human tyrosyl-DNA phosphodiesterase 1 (TDP1): qHTS in cells in absence of CPT | DT40 Tdp1-/- hTDP1 cells, no CPT, ATP luminescence, 48 h | Potency, µM (titrated, usually from 46.2 µM), for inactives: at the highest dose activity change, negative = growth inhibition, actives largely listed as inhibitors | actives 15% (n = 420,000) | AID 686978, 2013; also: potency is read from the fitted curve at half-maximal effect; % is scaled to controls: 0 for no effect and ±100 for the full control effect; nearly all actives have a fitted effect of over 55% in size
#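 Camptothecin absent (DMSO only). Human TDP1-complemented DT40 knockout cells, 400 cells/well, 37 °C for minimum 48 hr; ATP measured via CellTiter-Glo, 30 min dark incubation, luminescence.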
# uPA surface inh = cell surface uPA generation inhibition; cell surface uPA generation assay, qHTS; Potency, µM (titrated, usually from 38.3 µM), without a hit: top-dose activity change, negative = inhibition, hits mostly inhibitors; actives 0.31% (n = 330,000); AID 540303; active = well fitted inhibition curve with a large enough effect; inconclusive = small, poorly fitted or top-dose-only effect; inactive = no such curve, though single readings can be large or run the other way; tested in mouse RAW 264.7 cells; also: potency is read from the fitted curve at half-maximal effect; % is scaled to controls: 0 for no effect and ±100 for the full control effect; nearly all actives have a fitted effect of over 55% in size
# TDP1 inh = TDP1 (human) enzyme inhibition. Q9NUW8. recombinant TDP1, AlphaScreen DNA substrate cleavage. Potency, µM (series often up to 130 µM), inactives show at the top dose activity change, negative = inhibition, actives largely listed as inhibitors. actives 0.28% (n = 350,000). AID 485290; also: potency is read from the fitted curve at half-maximal effect; % is scaled to controls: 0 for no effect and ±100 for the full control effect; nearly all actives have a fitted effect of over 40% in size
#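 Recombinant E. coli-expressed Tdp1 (1 nM) preincubated with compound 15 min at RT, then 5'-biotin/3'-phosphotyrosine-FITC DNA substrate (15 nM) added for 5 min. AlphaScreen beads (10 ug/ml) added, 10 min RT; tyrosine-FITC cleavage read as signal loss.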
# Starred values were filed as active, the others as inactive; ? = inconclusive; · = not tested or not shown; ! = not confirmed by another sample; [ ] = dose if it differs, or a comment. A selection: hits, their analogues and other compounds. The true share with any hit is near 16%. Unless noted, calls follow the shape of the dose curve; as a rule, active = well fitted curve in the direction sought with a large enough effect; inconclusive = small, poorly fitted or top-dose-only effect, or another doubt; inactive = no such curve, though single readings can be large; an effect the other way counts as inactive or inconclusive.
# Values run as follows: TDP1 cell CPT	miR-21 FLuc	DT40 TDP1 no CPT	uPA surface inh	TDP1 inh
> COc1ccccc1C1CC(=O)N(c2cccc(C(F)(F)F)c2)C2=C1C(=O)OC2 (stereo unspecified)
→ 8.2µM*	2.9%	?	·	-1.9%
> C/C(=N\OC(=O)c1ccc(F)cc1)c1sc(-c2ccc(Cl)cc2)nc1C
→ 5.1%	·	-0.1%	-4.4%	·
> O=C(CSc1nc(-c2ccc(F)cc2)nc2c1Cc1ccccc1O2)Nc1cccc(C(=O)O)c1
→ ?	-2.6%	-17.2%	0.4%	3.98µM*
> O=C(CSc1nc(-c2ccccc2)nc2ccc(F)cc12)Nc1cccc(C(=O)O)c1
→ -13.3%	2.1%	-15.9%	-18.3%	79.4µM*
> O=C(CSc1nc(-c2ccccc2)nc2ccc(F)cc12)Nc1ccc(C(=O)O)cc1
→ -12.2%	-2.9%	-17.7%	-0.2%	·
> Cc1cc([N+](=O)[O-])ccc1-c1ccc(/C=N/NC(=O)Cc2ccccc2)o1
→ ?	-12.7%	?	-6.3%	0.6%
> COc1ccc(C=O)cc1COc1ccc2c(c1)OCO2
→ 3.66µM*	·	4.61µM*	-4.9%	5.6%
> COc1ccc(C=O)cc1COc1ccc([N+](=O)[O-])c(C)c1
→ 16.4µM*	3.2%	20.6µM*	4.9%	-1.8%
> COc1ccc(C)cc1NC(=O)COC(=O)c1ccc2ccccc2n1
→ -1.2%	·	2.0%	-9.2%	·
> Cc1ccc(C(=O)CN2CCN(c3ccccn3)CC2)c(C)c1
→ 0.4%	-10.3%	10.5%	-4.4%	·
> Cc1ccc2cc(C)c(N3CCN(c4ccccn4)CC3)nc2c1
→ 18.4µM*	-24.1%	?	-16.4%	-11.6%
> CCOC(=O)C(=C1Nc2ccccc2N1)n1c(-c2cccnc2)nc2ccccc21
→ 11.6µM*	·	?	·	·
> NNCCc1ccccc1
→ ?	-60.1%	13µM*!	3.7%	-5.2%[56.1 µM]
> Cc1ccc(C)c(C(=O)c2ccccc2NC(=O)c2ccccn2)c1
→ 16.4µM*	1.3%	9.2µM*	-13.0%	-5.1%
> S=C(Nc1ccccn1)c1ccccn1
→ 0.92µM*	-25.6%	0.92µM*	-9.2%	8.4%

# Compounds from the list above that contain a COOH group, in the order listed:
# Values run as follows: TDP1 cell CPT	miR-21 FLuc	DT40 TDP1 no CPT	uPA surface inh	TDP1 inh
> O=C(CSc1nc(-c2ccc(F)cc2)nc2c1Cc1ccccc1O2)Nc1cccc(C(=O)O)c1
→ ?	-2.6%	-17.2%	0.4%	3.98µM*
> O=C(CSc1nc(-c2ccccc2)nc2ccc(F)cc12)Nc1cccc(C(=O)O)c1
→ -13.3%	2.1%	-15.9%	-18.3%	79.4µM*
> O=C(CSc1nc(-c2ccccc2)nc2ccc(F)cc12)Nc1ccc(C(=O)O)cc1
→ -12.2%	-2.9%	-17.7%	-0.2%	·

# Reprinted at random: 2 compounds from above, in no set order.
# Values run as follows: TDP1 cell CPT	miR-21 FLuc	DT40 TDP1 no CPT	uPA surface inh	TDP1 inh
> COc1ccccc1C1CC(=O)N(c2cccc(C(F)(F)F)c2)C2=C1C(=O)OC2 (stereo unspecified)
→ 8.2µM*	2.9%	?	·	-1.9%
> S=C(Nc1ccccn1)c1ccccn1
→ 0.92µM*	-25.6%	0.92µM*	-9.2%	8.4%

# (more compounds)
# Values run as follows: TDP1 cell CPT	miR-21 FLuc	DT40 TDP1 no CPT	uPA surface inh	TDP1 inh
> CC(=O)Nc1ccccc1NC(=O)c1cc(C)ccc1C
→ 17.1%	0.7%	8.6%	-2.1%	-2.7%
> Cc1ccc(NC(=O)CN2C(=O)c3cccnc3Sc3ccccc32)c(Br)c1
→ ?	-19.4%	?	·	0.0%
> Cc1ccc(C)c(NC(=S)c2ccccn2)c1
→ 18.4µM*	-35.5%	18.4µM*	-3.5%	5.4%
> O=C(Nc1ccccn1)C(=O)Nc1ccccn1
→ -3.8%	-54.0%	-13.3%	-14.4%	5.1%
> Cc1ccc2c(c1)C(=O)C(=O)N2CC(=O)Nc1ccccc1NC(=O)c1ccccn1
→ 5.17µM*	26.5%	5.8µM*	-3.3%	-0.6%
> CCOc1ccc(NC(=O)c2oc3ccccc3c2NC(=O)Cc2cccs2)cc1
→ ?	-17.3%	?	·	6.4%
> O=c1c2oc3ccccc3c2n(Cc2ccccc2F)c(=O)n1Cc1ccc2c(c1)OCO2
→ 0.2%	0.1%	?	·	5.1%
> CC(C)OCCCNC(=O)c1c(N)n(/N=C/c2ccccn2)c2nc3ccccc3nc12
→ ?	1.9%	23.1µM*	1.6%	3.1%
> CCC(C)NC(=O)c1c(N)n(/N=C/c2ccccn2)c2nc3ccccc3nc12 (stereo unspecified)
→ 20.6µM*	-5.6%	20.6µM*	·	1.0%
> COc1cccc(N(CC(=O)NC2CCCCC2)C(=O)c2snc(C(N)=O)c2N)c1
→ 9.6%	-8.0%	-25.9%	-0.6%	15.9%
> CCCCN1CNC(=S)N(c2cc(C)ccc2C)C1
→ 2.7%	0.0%	0.3%	·	-3.4%
> COc1ccccc1-c1ccc(C(=O)N2CCC(N3CCc4ccccc4C3)CC2)c(N(C)CC2COCCO2)n1 (stereo unspecified)
→ -2.4%[9.04 µM]	·	-4.8%	·	·
> CCc1cc(CC)c(/C=N/NC(N)=O)c(CC)c1/C=N/NC(N)=O
→ ?	-4.6%	-27.7%	-2.1%	5.3%
> C[C@@H](NC(=O)c1nc[nH]c1C(=O)N1CCN(c2ccccc2)CC1)c1ccccc1
→ -4.6%	·	-13.5%	7.0%	2.0%
> CC(C)(C)NC(=O)C(c1ccc(-c2ccccc2)cc1)N(C[C@H]1CC[C@@H]([C@@H]2CC[C@H](CO)O2)O1)C(=O)c1ccc(C(C)(C)C)cc1 (stereo partly specified)
→ ?	·	20.6µM*	?	2.1%[56.1 µM]

# (cont.)
# Labels used below: A = TDP1 cell CPT; B = miR-21 FLuc; C = DT40 TDP1 no CPT; D = uPA surface inh; E = TDP1 inh
> CCOC(=O)N1CCN(Cc2nc(-c3ccc(C)cc3)no2)CC1
  A = ?	B = 1.5%	C = -25.5%	D = 6.0%	E = -5.3%

> CSC1=NC(C(Cl)(Cl)Cl)N=C(c2ccc(C)cc2)N1 (stereo unspecified)
  A = 0.82µM*	B = 22.3%	C = 0.581µM*	D = -10.4%	E = 8.8%

> CCC1N=C(SC)NC(C)=C1C(=O)c1ccccc1 (stereo unspecified)
  A = -20.3%	B = -1.2%	C = -27.6%	D = -13.8%	E = 3.7%

> CC(C)CC1C(=O)N(Cc2cn(Cc3ccco3)nn2)CCS(=O)(=O)N1Cc1ccc(-c2ccncc2)cc1 (stereo unspecified)
  A = 20.6µM*	B = ·	C = 14.6µM*	D = ·	E = ·

> CC(C)CC1C(=O)N(Cc2cn(Cc3ccco3)nn2)CCS(=O)(=O)N1Cc1ccc(-c2ccc(F)nc2)cc1 (stereo unspecified)
  A = ?	B = ·	C = 23.1µM*	D = ·	E = ·

> CC(C)CC1C(=O)N(Cc2cn(Cc3ccco3)nn2)CCS(=O)(=O)N1Cc1ccc(-c2ccccc2)cc1 (stereo unspecified)
  A = 14.6µM*	B = ·	C = ?	D = ·	E = ·

> CSc1ccc(CN2CCOc3ccc(CN4CCCCC4CO)cc3C2)cc1 (stereo unspecified)
  A = -8.9%[9.04 µM]	B = ·	C = ?	D = ·	E = ·

> O=C(Cc1cccs1)N[C@@H]1C(=O)N2C(C(=O)[O-])=C(C[n+]3ccccc3)CS[C@H]12
  A = -3.0%	B = ·	C = -13.6%	D = ·	E = ·

> NC(=O)c1cc[n+](CC2=C(C(=O)[O-])N3C(=O)[C@@H](NC(=O)Cc4cccs4)[C@@H]3SC2)cc1
  A = ·	B = ·	C = ·	D = ·	E = 15.8µM*

> CC(C)CN(C(=O)CSc1nnc(-c2ccco2)o1)c1c(N)n(Cc2ccccc2)c(=O)[nH]c1=O
  A = -1.9%	B = -1.0%	C = 0.5%	D = -6.6%	E = 0.5%

# Continued:
# Labels used below: A = TDP1 cell CPT; B = miR-21 FLuc; C = DT40 TDP1 no CPT; D = uPA surface inh; E = TDP1 inh
> CC(C)CN(C(=O)CSc1nc2ccccc2o1)c1c(N)n(Cc2ccccc2)c(=O)[nH]c1=O
  A = 18.4µM*	B = ·	C = 20.6µM*	D = -4.1%	E = 0.9%

> CC(C)CN(C(=O)COC(=O)c1cccc2ccccc12)c1c(N)n(Cc2ccccc2)c(=O)[nH]c1=O
  A = ?	B = ·	C = 16.4µM*	D = -18.9%	E = ·

> CCN(C(=O)COC(=O)c1cccc2ccccc12)c1c(N)n(Cc2ccccc2)c(=O)[nH]c1=O
  A = -20.0%	B = ·	C = 0.3%	D = -2.8%	E = ·

> CCC(C)(C)n1nnnc1C(c1ccccn1)N1CCN(c2cccc(OC)c2)CC1 (stereo unspecified)
  A = 3.6%	B = 0.3%	C = -28.3%	D = 8.1%	E = -2.2%

> CCN(CC)S(=O)(=O)c1ccc(/C=C/C(=O)OCC(=O)NCc2ccco2)cc1
  A = 9.2µM*	B = ·	C = ?	D = -5.3%	E = ·
